An excerpt weighted towards active compounds, which were near 1.1% of everything screened.
TrxR1 substrate: substrates of rat thioredoxin reductase 1; Potency, µM (top dose mostly 114 µM), without a hit: at the top dose activity change, negative = substrate turnover; hit rate 0.01% among 390,000; purified TrxR1 substrate turnover, NADPH consumption readout; O89049; also: potency is read from the fitted curve at half-maximal effect; % is scaled to controls: 0 for no effect and ±100 for the full control effect; nearly all actives have a fitted effect of over 50% in size
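Rat TrxR1, dispensed at 90 nM, was prereduced with 400 uM NADPH (final) for 5 min at ~22 deg C, then incubated with compound 15 min before 400 uM selenite. A first-read NADPH fluorescence drop versus no-compound background flagged substrates.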
GALK inh: inhibitors of human galactokinase; hit rate 0.007% among 270,000; Purified GALK, Kinase-Glo residual ATP luminescence; Potency, µM (highest dose often 57.5 µM), without a hit: top-dose activity change, negative = inhibition, most hits filed as inhibitors; P51570; AID 1868; also: potency is read from the fitted curve at half-maximal effect; % is scaled to controls: 0 for no effect and ±100 for the full control effect
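ATP-depletion format; final 35 uM ATP, 100 uM D-galactose, 5 nM enzyme; pH 8.0 HEPES/Mg2+ buffer; 60 min RT; luminescence read 10 min after detection reagent.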
rTrxR1 inhibitor: blocks rat thioredoxin reductase 1; AID 588453; Potency, µM (highest dose often 114 µM), inactives show at the highest dose activity change, negative = inhibition, hits mostly inhibitors; O89049; recombinant rTrxR1, NADPH fluorescence consumption, selenite substrate; hit rate 1% among 390,000; also: potency is read from the fitted curve at half-maximal effect; % is scaled to controls: 0 for no effect and ±100 for the full control effect; nearly all actives have a fitted effect of over 65% in size
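Rat TrxR1 (90 nM in the dispensed reagent) was pre-reduced with 400 uM NADPH for 5 min at room temperature, then incubated with compound for 15 min. After 400 uM selenite was added, NADPH fluorescence (Ex 340/Em 450 nm) was followed for 8 min.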
miR-21 reporter: miR-21 reporter, rising signal; Potency, µM (top dose mostly 38.3 µM), for the others: at the highest dose reporter change, positive = more light; 340,000 tested, under 10 active; HeLa miR-21 FLuc reporter, luciferase, 48 h; active = well fitted rising curve with a large enough effect; inconclusive = small, poorly fitted or top-dose-only effect; inactive = no such curve, though single readings can be large or run the other way;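 note: % of control where 0% means no effect; miR-21 action dims this reporter so a rising signal means less miR-21 action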
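Luminescence from a firefly luciferase reporter carrying a miR-21 binding site downstream, stably expressed under a CMV promoter in HeLa cells that make miR-21 endogenously, reports miRNA modulation after 48 h compound exposure up to approximately 40uM final.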
PINK1 modulator: PINK1 expression modulation; PINK1 immunofluorescence, high-content cytometry, 24 h; Potency, µM (doses to about 76.6 µM), inactives show at the highest dose activation (PINK1 increase), usual class: activators; hit rate 0.2% among 410,000; AID 624263; active = well fitted activation curve with a large enough effect; inconclusive = small, poorly fitted or top-dose-only effect; cell line not stated here; also: potency is read from the fitted curve at half-maximal effect; % of control where 0% means no effect; nearly all actives have a fitted effect of over 65% in size
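A stable cell line was treated with compounds at 5 concentrations for 24 hours, with CCCP as control. PINK1 levels and mitochondrial localization were measured by immunofluorescence with mitochondrial, cell and nuclear markers after fixation, read by laser-scanning cytometry.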
Numbers without * were called inactive; ? = inconclusive; nt = no result; ! = a repeat was not active; [ ] = dose if it differs, or a comment. Unless noted, calls follow the shape of the dose curve; as a rule, active = well fitted curve in the direction sought with a large enough effect; inconclusive = small, poorly fitted or top-dose-only effect, or another doubt; inactive = no such curve, though single readings can be large; an effect the other way counts as inactive or inconclusive.

Each structure is followed by: TrxR1 substrate	GALK inh	rTrxR1 inhibitor	miR-21 reporter	PINK1 modulator
1. COc1ccc2[nH]c3c4c(ccc3c2c1)C(=O)C=CC4=O
 : -2%	0%	50µM*	25%	-3%
2. Cc1cc(Cl)n2c(nc3ccccc32)c1C#N
 : 14%[57.1 µM]	-11%	7.1µM*	?	-1%
3. Cc1c(CCCl)c(Cl)n2c(nc3ccccc32)c1C#N
 : 12%	nt	2.2µM*	nt	6%
4. N#Cc1c2c(c(Cl)n3c1nc1ccccc13)CCCC2
 : 2%	nt	3.5µM*	nt	1%
5. CCc1c(C)c(C#N)c2nc3ccccc3n2c1NC
 : 3%	nt	-4%	0%	4%
6. COc1ccc(CN2CCCC(n3cc(C(=O)NC4CCCC4)nn3)C2)c2ccccc12 (stereo not drawn)
 : nt	nt	nt	nt	1%
7. COc1cccc(NC(=O)c2nc(SC)ncc2Cl)c1
 : 6%[57.1 µM]	1%	?	-1%	2%
8. Cc1cccc(NC(=O)c2nc(S(C)(=O)=O)ncc2Cl)c1
 : 11%[57.1 µM]	nt	7.1µM*	?	-1%
9. COc1cccc(NC(=O)c2nc(S(C)(=O)=O)ncc2Cl)c1
 : 6%	14%	8.9µM*	?	-1%
10. COCO[C@H]([C@@H](C)C=C(Br)Br)[C@@H](C)COCc1ccc(OC)cc1
 : 2%	nt	13%	nt	nt
11. COc1ccc(COC[C@H](C)[C@H](O)[C@@H](C)[C@H]2OC(=O)[C@@H]2C)cc1
 : -3%	nt	7.9µM*!	nt	1%
12. CCOc1ccccc1OCC(=O)NCc1ccco1
 : 7%	-2%	28µM*	-1%	nt
13. CCOc1ccccc1N(C(=O)CNS(=O)(=O)c1ccccc1)C(CC)C(=O)NCc1ccco1 (stereo not drawn)
 : -2%	0%	25µM*	1%	nt
14. CCCC(C(=O)NCc1ccco1)N(Cc1ccco1)C(=O)CNS(=O)(=O)c1ccccc1 (stereo not drawn)
 : 2%[57.1 µM]	7%	-1%[57.1 µM]	3%	-2%
15. Cc1cnc(-n2ncc(C(=O)N(C)CC3COCCO3)c2C2CC2)nc1-c1cccs1 (stereo not drawn)
 : nt	nt	nt	nt	0%
16. COc1ccc2c(Sc3ccccc3)c(C(=O)NCc3ccc(OC(C)C)cc3)[nH]c2c1
 : 34%	nt	10%	-3%	3%
17. Cc1c(C(=O)O)cccc1-c1ccc(/C=C2/NC(=O)N(c3ccccc3)C2=O)o1
 : -12%	-2%	-9%	-33%	0%
18. Cc1ccc(/C=C2/NC(=O)N(c3ccccc3)C2=O)o1
 : -13%	-1%	50µM*	-24%	0%
19. O=C1N/C(=C/c2ccc(N3CCOCC3)o2)C(=O)N1c1cccc(Cl)c1
 : -5%	-1%	3.2µM*	20%	?
20. CCn1nc(C)c(CN2Cc3ccccc3OC(c3ccccc3OC)C2)c1C (stereo not drawn)
 : nt	nt	nt	nt	-1%
21. Cn1c(=O)c2c(nc(SCC(=O)N3c4ccccc4CCc4ccccc43)n2C)n(C)c1=O
 : 0%	6%	15%	2%	10µM*
22. CC(=O)Nc1cc(C(=O)Nc2ccc3c(c2)N(C)C(=O)c2ccccc2S3)ccc1C
 : -3%[57.1 µM]	nt	6%[57.1 µM]	29%	16%
23. O=C1c2ccccc2-c2onc3ccc(NCc4ccco4)c1c23
 : -8%	9%	25µM*	15%	?
24. O=C(Nc1ccc(NC(=O)c2ccco2)nc1)c1cccc(F)c1
 : -2%	-3%	-2%	-47%	13%
25. O=C(Nc1ccc(NC(=O)c2ccccc2F)cn1)c1ccco1
 : -3%[57.1 µM]	8%	14µM*	8%	1%
26. O=C(COc1ccc(Br)cc1)Nc1cccc2cccnc12
 : 3%[57.1 µM]	nt	13%[57.1 µM]	-10%	0%
27. Cc1ccccc1-c1n[nH]c(=S)n1/N=C/C=C/c1ccco1
 : -6%	2%	4µM*	0%	0%
28. S=c1[nH]nc(-c2ccccc2)n1/N=C/C=C/c1ccco1
 : -13%	-1%	-34%	-8%	3%
29. Cc1[nH]c2ccccc2c1C(C[N+](=O)[O-])c1ccco1 (stereo not drawn)
 : 2%	-1%	13µM*	6%	0%
30. O=c1oc2ccccc2n1CCn1c2ccccc2c2nc3ccccc3nc21
 : -3%	0%	-9%	-4%	7%

Further compounds follow.
Each structure is followed by: TrxR1 substrate	GALK inh	rTrxR1 inhibitor	miR-21 reporter	PINK1 modulator
31. COc1ccc2c(c1)c1nc3ccccc3nc1n2CCn1c(=O)oc2ccccc21
 : 3%	1%	22%	-6%	4µM*
32. O=S(=O)(c1ccc(F)cc1)N1CCN(c2nc(-c3ccccc3)nc3cc(Cl)ccc23)CC1
 : 12%[0.457 µM]	nt	20%	nt	-2%
33. CCN(CC)c1ccc(/C=C/c2sc3ccccc3[n+]2CCCCI)cc1
 : -8%	nt	?	nt	32µM*
34. Oc1c(C(c2cccc(Cl)c2)N2CCOCC2)sc2nc(-c3ccco3)nn12 (stereo not drawn)
 : 1%[57.1 µM]	nt	-3%[57.1 µM]	-3%	0%
35. Nc1c(C2CCCCC2)c(=O)on1C(=O)c1ccccc1
 : -1%	nt	45µM*	nt	-1%
36. CCc1nn(CC(=O)NCCc2ccc(OC)cc2OC)c(=O)c2cc3c(OC)cccc3n12
 : 6%	nt	1%	0%	1%
37. COc1ccc(C(=O)CC(Nc2ccc([N+](=O)[O-])cc2)c2ccc(OC)cc2)cc1 (stereo not drawn)
 : 2%	0%	21%	9%	-7%[38.3 µM]
38. CNC(CC(=O)c1ccc([N+](=O)[O-])cc1)C(Cl)(Cl)Cl (stereo not drawn)
 : ?	2%	0.63µM*	-1%	-2%
39. Cc1oc(-c2ccccc2F)nc1CS(=O)CC(=O)NCc1cccs1 (stereo not drawn)
 : 5%[57.1 µM]	-2%	?	-6%	-1%
40. Cc1oc(-c2ccccc2F)nc1CS(=O)CC(=O)NC(C)C (stereo not drawn)
 : 1%	nt	40µM*	6%	0%
41. CCCNC(=O)CS(=O)Cc1nc(-c2ccccc2C)oc1C (stereo not drawn)
 : 2%[57.1 µM]	2%	?	0%	2%
42. CCC(C)NC(=O)CS(=O)Cc1nc(-c2ccccc2C)oc1C (stereo not drawn)
 : 18%[57.1 µM]	1%	7.1µM*	-3%	3%
43. Clc1cccc(C2Nc3cccc4cccc(c34)N2)c1
 : 0%	6%	25µM*	0%	0%
44. c1csc(C2Nc3cccc4cccc(c34)N2)c1
 : -11%	1%	?	1%	0%
45. c1ccc(C2Nc3cccc4cccc(c34)N2)cc1
 : 10%	-6%	?	5%	-4%
46. Clc1ccc(C2Nc3cccc4cccc(c34)N2)cc1Cl
 : -1%	2%	45µM*	-2%	1%
47. Brc1cccc(C2Nc3cccc4cccc(c34)N2)c1
 : 1%	-2%	56µM*	-1%	-2%
48. Brc1ccc(C2Nc3cccc4cccc(c34)N2)o1
 : 3%	4%	25µM*	-1%	3%[38.3 µM]
49. CN(C)c1ccc(C2Nc3cccc4cccc(c34)N2)cc1
 : -6%	4%	-9%	-9%	0%
50. COc1ccc(C2Nc3cccc4cccc(c34)N2)cc1
 : 6%	1%	?	-1%	-1%
51. Cc1cccc(C)c1OCC(=O)Nc1c(C(=O)c2ccc(Br)cc2)oc2ccccc12
 : 10%	nt	39%	-2%	0%

Compound profiles, from the list above:
Clc1ccc(C2Nc3cccc4cccc(c34)N2)cc1Cl is entered as TrxR1 substrate = -1%; GALK inh = 2%; rTrxR1 inhibitor = 45µM*; miR-21 reporter = -2%; PINK1 modulator = 1%
COc1ccc(C2Nc3cccc4cccc(c34)N2)cc1 is entered as TrxR1 substrate = 6%; GALK inh = 1%; rTrxR1 inhibitor = ?; miR-21 reporter = -1%; PINK1 modulator = -1%

Random excerpt: two entries already listed
Each structure is followed by: TrxR1 substrate	GALK inh	rTrxR1 inhibitor	miR-21 reporter	PINK1 modulator
46. Clc1ccc(C2Nc3cccc4cccc(c34)N2)cc1Cl
 : -1%	2%	45µM*	-2%	1%
37. COc1ccc(C(=O)CC(Nc2ccc([N+](=O)[O-])cc2)c2ccc(OC)cc2)cc1 (stereo not drawn)
 : 2%	0%	21%	9%	-7%[38.3 µM]
